Results on one substance are retold here after patent US8669260B2, “Ketoconazole-derivative antagonist of human pregnane X receptor and uses thereof” (priority 2008, dated 2014).

In the data set the test system is SKOV-3 cells. As to conditions: MTT; 48-96 hr exposure (T1317: 48 hours, normalized to GSK1385).

For hyperforin, the “SKOV-3 cell survival (in words)” value is reported as “significant increase in cell survival”.
